US10844067B2, “Heterocyclic compounds as RET kinase inhibitors” (Cancer Research Technology Limited, priority 2016, dated 2020)
Structures can show the parent of a compound that is named as a salt.

Each compound was assayed on BaF3 cell lines expressing KDR (assay: BaF3 cell assay, KDR (CellTiter-Glo viability)). Conditions: Mus musculus, BaF3 cells expressing KDR, 48 hours.
Format: cell-based

With `CS(=O)(=O)N1CCC(n2nc(-c3[nH]c4ccccc4c3Cl)c3c(N)ncnc32)CC1` [Example 4, 3-(3-Chloro-1H-indol-2-yl)-1-(1-methylsulfonyl-4-piperidyl)pyrazolo[3,4-d]pyrimidin-4-amine] as the compound, how does the IC50 read?
The IC50 was 6.94 µM.

`CC(C)(C)OC(=O)N[C@H]1CC[C@H](n2nc(-c3cc4cccnc4[nH]3)c3c(N)ncnc32)CC1` [Example 28, tert-Butyl (trans-4-(4-amino-3-(1H-pyrrolo[2,3-b]pyridin-2-yl)-1H-pyrazolo[3,4-d]pyrimidin-1-yl)cyclohexyl)carbamate] was tested. Which IC50 did it give?
Its IC50 is 6.46 µM.

Each compound was assayed on Non-modified BaF3 cells (WT) (assay: BaF3 cell assay, non-modified (WT) cells with IL3). Conditions: Mus musculus, BaF3, 48 h, read-out: BaF3 IC50.

How did the IC50 turn out when `CC(C)(C)n1nc(-c2cc3ccc(C#N)cc3[nH]2)c2c(N)ncnc21` [Example 17, 2-(4-Amino-1-(tert-butyl)-1H-pyrazolo[3,4-d]pyrimidin-3-yl)-1H-indole-6-carbonitrile] was run?
The IC50 was over 10 µM.

Same assay, conditions: Mus musculus, BaF3, 48 h, read-out: BaF3 IC50, Non-modified BaF3 cells (WT) with IL3, 48 hours, CellTiter-Glo

With `CS(=O)(=O)N1CCC(n2nc(-c3[nH]c4ccccc4c3Cl)c3c(N)ncnc32)CC1` [Example 4, 3-(3-Chloro-1H-indol-2-yl)-1-(1-methylsulfonyl-4-piperidyl)pyrazolo[3,4-d]pyrimidin-4-amine] as the compound, how does the IC50 read?
Its IC50 is 7.74 µM.

With `CS(=O)(=O)N1CCC(n2nc(-c3[nH]c4ncccc4c3Cl)c3c(N)ncnc32)CC1` [Example 23, 3-{3-Chloro-1H-pyrrolo[2,3-b]pyridin-2-yl}-1-(1-methanesulfonylpiperidin-4-yl)-1H-pyrazolo[3,4-d]pyrimidin-4-amine] as the compound, how does the IC50 read?
Its IC50 is over 10 µM.

How did the IC50 turn out when `Nc1ncnc2c1c(-c1[nH]c3ncccc3c1Cl)nn2[C@H]1CC[C@H](NC(=O)C2CC2)CC1` [Example 68, N-[trans-4-[4-Amino-3-(3-chloro-1H-pyrrolo[2,3-b]pyridin-2-yl)pyrazolo[3,4-d]pyrimidin-1-yl]cyclohexyl]cyclopropanecarboxamide] was run?
Its IC50 is over 10 µM.

`CC(C)(C)Cn1nc(-c2[nH]c3ncccc3c2Cl)c2c(N)ncnc21` [Example 81, 3-(3-Chloro-1H-pyrrolo[2,3-b]pyridin-2-yl)-1-neopentyl-1H-pyrazolo[3,4-d]pyrimidin-4-amine] was tested. Which IC50 did it give?
The IC50 was over 10 µM.

With `Nc1ncnc2c1c(-c1cc3ccccc3[nH]1)nn2[C@H]1CC[C@H](N2CCOCC2)CC1` [Example 6, 3-(1H-Indol-2-yl)-1-(trans-4-morpholinocyclohexyl)-1H-pyrazolo[3,4-d]pyrimidin-4-amine] as the compound, how does the IC50 read?
The IC50 was 1.58 µM.

How did the IC50 turn out when `CC(C)n1cc(-c2[nH]c3ncccc3c2Cl)c2c(N)ncnc21` [Example 45, 5-(3-Chloro-1H-pyrrolo[2,3-b]pyridin-2-yl)-7-isopropyl-pyrrolo[2,3-d]pyrimidin-4-amine] was run?
The IC50 was 2.24 µM.

For `CC(C)(C)n1nc(-c2[nH]c3ccccc3c2Br)c2c(N)ncnc21` [Example 49, 3-(3-Bromo-1H-indol-2-yl)-1-(tert-butyl)-1H-pyrazolo[3,4-d]pyrimidin-4-amine], which IC50 is on record?
The IC50 was 9.18 µM.

For `CC(C)(C)n1nc(-c2cc3ccc(C#N)nc3[nH]2)c2c(N)ncnc21` [Example 88, 2-(4-Amino-1-(tert-butyl)-1H-pyrazolo[3,4-d]pyrimidin-3-yl)-1H-pyrrolo[2,3-b]pyridine-6-carbonitrile], which IC50 is on record?
The IC50 was over 10 µM.

With `CC(C)n1nc(-c2cc3cccnc3[nH]2)c2c(N)nccc21` [Example 32, 1-Isopropyl-3-(1H-pyrrolo[2,3-b]pyridin-2-yl)-1H-pyrazolo[4,3-c]pyridin-4-amine] as the compound, how does the IC50 read?
The IC50 was 8.57 µM.

How did the IC50 turn out when `Nc1ncnc2c1c(-c1[nH]c3ccccc3c1Cl)nn2C1CCC(NC(=O)C2CC2)CC1` (stereo not drawn) [Example 8, N-[4-[trans-4-Amino-3-(3-chloro-1H-indol-2-yl)pyrazolo[3,4-d]pyrimidin-1-yl]cyclohexyl]cyclopropanecarboxamide] was run?
Its IC50 is 9.19 µM.

With `CC(C)c1cc(-c2[nH]c3ccccc3c2Cl)c2c(N)ncnn12` [Example 14, 5-(3-Chloro-1H-indol-2-yl)-7-(propan-2-yl)pyrrolo[2,1-f][1,2,4]triazin-4-amine] as the compound, how does the IC50 read?
The IC50 was over 10 µM.

Which IC50 does the source give for `CC(C)n1nc(-c2cc3ccc(Br)cc3[nH]2)c2c(N)ncnc21` [Example 15, 3-(6-Bromo-1H-indol-2-yl)-1-isopropyl-pyrazolo[3,4-d]pyrimidin-4-amine] here?
The IC50 was over 10 µM.

Which IC50 does the source give for `CC(C)(C)n1nc(-c2cc3cccnc3[nH]2)c2c(N)ncnc21` [Example 9, 1-tert-Butyl-3-{1H-pyrrolo[2,3-b]pyridin-2-yl}-1H-pyrazolo[3,4-d]pyrimidin-4-amine] here?
Its IC50 is 3.8 µM.

For `CC(C)(C)OC(=O)N[C@H]1CC[C@@H](n2nc(-c3cc4cccnc4[nH]3)c3c(N)ncnc32)CC1` [Example 27, tert-Butyl N-[cis-4-(4-amino-3-{1H-pyrrolo[2,3-b]pyridin-2-yl}-1H-pyrazolo[3,4-d]pyrimidin-1-yl)cyclohexyl]carbamate], which IC50 is on record?
The IC50 was 9.06 µM.

For `Nc1ncnc2c1c(-c1[nH]c3ncccc3c1Cl)nn2C1CCC(O)C1` (stereo not shown) [Example 69, 3-[4-Amino-3-(3-chloro-1H-pyrrolo[2,3-b]pyridin-2-yl)pyrazolo[3,4-d]pyrimidin-1-yl]cyclopentanol], which IC50 is on record?
Its IC50 is 3.16 µM.

For `CC(C)(C)n1nc(-c2[nH]c3ncccc3c2Cl)c2c(N)ncnc21` [Example 10, 1-tert-Butyl-3-{3-chloro-1H-pyrrolo[2,3-b]pyridin-2-yl}-1H-pyrazolo[3,4-d]pyrimidin-4-amine], which IC50 is on record?
The IC50 was over 10 µM.

For `Nc1ncnc2c1c(-c1[nH]c3ncccc3c1Cl)nn2[C@H]1CC[C@@H](N)CC1` [Example 38, 1-(cis-4-Aminocyclohexyl)-3-(3-chloro-1H-pyrrolo[2,3-b]pyridin-2-yl)-1H-pyrazolo[3,4-d]pyrimidin-4-amine dihydrochloride], which IC50 is on record?
Its IC50 is 1.3 µM.

Which IC50 does the source give for `CCn1nc(-c2[nH]c3ncccc3c2Cl)c2c(N)ncnc21` [Example 46, 3-(3-Chloro-1H-pyrrolo[2,3-b]pyridin-2-yl)-1-ethyl-pyrazolo[3,4-d]pyrimidin-4-amine] here?
Its IC50 is over 10 µM.

How did the IC50 turn out when `CC(C)n1nc(-c2[nH]c3cc(Br)ccc3c2Cl)c2c(N)ncnc21` [Example 16, 3-(6-Bromo-3-chloro-1H-indol-2-yl)-1-isopropyl-pyrazolo[3,4-d]pyrimidin-4-amine] was run?
The IC50 was over 10 µM.

For `Nc1ncnc2c1c(-c1[nH]c3ccccc3c1Cl)nn2C1CCOC1` (stereo not shown) [Example 86, 3-(3-Chloro-1H-indol-2-yl)-1-(tetrahydrofuran-3-yl)-1H-pyrazolo[3,4-d]pyrimidin-4-amine], which IC50 is on record?
Its IC50 is over 10 µM.

How did the IC50 turn out when `CCC(C)n1nc(-c2[nH]c3ncccc3c2Cl)c2c(N)ncnc21` (stereo not shown) [Example 62, 1-(sec-Butyl)-3-(3-chloro-1H-pyrrolo[2,3-b]pyridin-2-yl)-1H-pyrazolo[3,4-d]pyrimidin-4-amine] was run?
Its IC50 is over 10 µM.

With `N#Cc1ccc(Cn2nc(-c3[nH]c4ncccc4c3Cl)c3c(N)ncnc32)cc1` [Example 57, 4-((4-Amino-3-(3-chloro-1H-pyrrolo[2,3-b]pyridin-2-yl)-1H-pyrazolo[3,4-d]pyrimidin-1-yl)methyl)benzonitrile] as the compound, how does the IC50 read?
The IC50 was over 10 µM.

How did the IC50 turn out when `CC(C)(C)n1nc(-c2[nH]c3cccc(Cl)c3c2Cl)c2c(N)ncnc21` [Example 53, 1-tert-Butyl-3-(3,4-dichloro-1H-indol-2-yl)pyrazolo[3,4-d]pyrimidin-4-amine] was run?
The IC50 was over 10 µM.

`CC(C)(O)c1ccc2c(Cl)c(-c3nn(C(C)(C)C)c4ncnc(N)c34)[nH]c2c1` [Example 52, 2-(2-(4-Amino-1-(tert-butyl)-1H-pyrazolo[3,4-d]pyrimidin-3-yl)-3-chloro-1H-indol-6-yl)propan-2-ol] was tested. Which IC50 did it give?
Its IC50 is over 10 µM.

How did the IC50 turn out when `CC(C)n1cc(-c2cc3ccccc3[nH]2)c2c(N)ncnc21` [Example 47, 5-(1H-Indol-2-yl)-7-isopropyl-pyrrolo[2,3-d]pyrimidin-4-amine] was run?
The IC50 was 4.09 µM.

How did the IC50 turn out when `CC(C)(C)n1nc(-c2cc3cc(F)ccc3[nH]2)c2c(N)ncnc21` [Example 74, 1-tert-Butyl-3-(5-fluoro-1H-indol-2-yl)pyrazolo[3,4-d]pyrimidin-4-amine] was run?
The IC50 was 5 µM.

With `CCCn1nc(-c2[nH]c3ncccc3c2Cl)c2c(N)ncnc21` [Example 82, 3-(3-Chloro-1H-pyrrolo[2,3-b]pyridin-2-yl)-1-propyl-1H-pyrazolo[3,4-d]pyrimidin-4-amine] as the compound, how does the IC50 read?
Its IC50 is over 10 µM.

With `Nc1ncnc2c1c(-c1cc3cccnc3[nH]1)nn2C1CCC1` [Example 42, 1-Cyclobutyl-3-(1H-pyrrolo[2,3-b]pyridin-2-yl)pyrazolo[3,4-d]pyrimidin-4-amine] as the compound, how does the IC50 read?
The IC50 was 4.79 µM.

How did the IC50 turn out when `CC(C)(C)n1nc(-c2[nH]c3cc(C#N)ccc3c2Cl)c2c(N)ncnc21` [Example 18, 2-(4-Amino-1-(tert-butyl)-1H-pyrazolo[3,4-d]pyrimidin-3-yl)-3-chloro-1H-indole-6-carbonitrile] was run?
Its IC50 is over 10 µM.

How did the IC50 turn out when `CC(C)c1cc(-c2cc3ccccc3[nH]2)c2c(N)ncnn12` [Example 13, 5-(1H-Indol-2-yl)-7-(propan-2-yl)pyrrolo[2,1-f][1,2,4]triazin-4-amine] was run?
Its IC50 is 5.07 µM.

`CC(C)(C)n1nc(-c2[nH]c3ccccc3c2F)c2c(N)ncnc21` [Example 76, 1-(tert-Butyl)-3-(3-fluoro-1H-indol-2-yl)-1H-pyrazolo[3,4-d]pyrimidin-4-amine] was tested. Which IC50 did it give?
The IC50 was 5.48 µM.

`CC(C)n1cc(-c2cc3cccnc3[nH]2)c2c(N)ncnc21` [Example 21, 7-Isopropyl-5-(1H-pyrrolo[2,3-b]pyridin-2-yl)pyrrolo[2,3-d]pyrimidin-4-amine] was tested. Which IC50 did it give?
Its IC50 is 2.51 µM.

How did the IC50 turn out when `Nc1ncnc2c1c(-c1[nH]c3ncccc3c1Cl)nn2C1CCOC1` (stereo not shown) [Example 78, 3-(3-Chloro-1H-pyrrolo[2,3-b]pyridin-2-yl)-1-(tetrahydrofuran-3-yl)-1H-pyrazolo[3,4-d]pyrimidin-4-amine] was run?
Its IC50 is over 10 µM.

For `CC(C)CCn1nc(-c2[nH]c3ncccc3c2Cl)c2c(N)ncnc21` [Example 80, 3-(3-Chloro-1H-pyrrolo[2,3-b]pyridin-2-yl)-1-isopentyl-1H-pyrazolo[3,4-d]pyrimidin-4-amine], which IC50 is on record?
The IC50 was 8.5 µM.

How did the IC50 turn out when `CC(C)(C)n1nc(-c2[nH]c3ncccc3c2Br)c2c(N)ncnc21` [Example 34, 3-(3-bromo-1H-pyrrolo[2,3-b]pyridin-2-yl)-1-(tert-butyl)-1H-pyrazolo[3,4-d]pyrimidin-4-amine] was run?
The IC50 was 3.59 µM.

With `Nc1ncnc2c1c(-c1[nH]c3ncccc3c1Cl)nn2CCN1CCCCC1` [Example 87, 3-(3-Chloro-1H-pyrrolo[2,3-b]pyridin-2-yl)-1-(2-(piperidin-1-yl)ethyl)-1H-pyrazolo[3,4-d]pyrimidin-4-amine] as the compound, how does the IC50 read?
Its IC50 is over 10 µM.

Same assay, conditions: read-out: BaF3 IC50; Non-modified BaF3 cells (WT) with IL3, 48 hours, CellTiter-Glo

`CC(C)(C)OC(=O)N[C@H]1CC[C@H](n2nc(-c3cc4cccnc4[nH]3)c3c(N)ncnc32)CC1` [Example 28, tert-Butyl (trans-4-(4-amino-3-(1H-pyrrolo[2,3-b]pyridin-2-yl)-1H-pyrazolo[3,4-d]pyrimidin-1-yl)cyclohexyl)carbamate] was tested. Which IC50 did it give?
Its IC50 is 4.53 µM.
